Measurements published in patent US5336483A (priority 1993, dated 1994).

Target: κ2 receptor
Test: Displacement of [^3 H]BRM (bremazocine), κ2 receptor binding, guinea pig brain membranes depleted of μ and δ sites
Conditions: [^3 H]bremazocine; read-out: Kd of radioligand

For `CCC12CCN(CC3(O)CC3)C(Cc3ccc(O)cc31)C2(C)C` (stereo not shown) [[^3 H] BRM, reference compound], the Kd was 1 nM.
